The structures appear in SMILES notation.

Sequences of proteins named here, by UniProt entry; tags and fusion partners are left off. A change or cut given only in a name is not applied to a line headed by its entry.
UniProt P43490: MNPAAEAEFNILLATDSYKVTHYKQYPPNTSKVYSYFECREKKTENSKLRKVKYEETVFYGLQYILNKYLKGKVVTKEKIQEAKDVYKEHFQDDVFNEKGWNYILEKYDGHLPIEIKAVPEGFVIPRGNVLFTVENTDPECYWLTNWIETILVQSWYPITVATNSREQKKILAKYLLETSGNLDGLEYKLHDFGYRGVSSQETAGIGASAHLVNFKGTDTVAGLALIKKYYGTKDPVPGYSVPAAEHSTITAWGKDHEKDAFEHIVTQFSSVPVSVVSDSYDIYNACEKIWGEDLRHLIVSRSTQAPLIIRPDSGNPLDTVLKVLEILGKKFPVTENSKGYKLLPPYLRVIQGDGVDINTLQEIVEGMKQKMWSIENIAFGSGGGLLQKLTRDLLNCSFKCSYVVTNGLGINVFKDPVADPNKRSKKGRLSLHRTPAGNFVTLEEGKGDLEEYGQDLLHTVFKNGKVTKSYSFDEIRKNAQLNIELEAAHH

As a reminder, the IC50 is the midpoint of a concentration-inhibition curve.

The assay has as its target NAMPT (Homo sapiens (Human), UniProt P43490). The experiment in a line: Biochemical inhibition assay (NAMPT enzymatic reaction, NMN quantified by mass spectrometry).
Turning to `O=C(NCC1CC12CCN(C(=O)c1ccnc3ncccc13)CC2)c1cc2ccncc2o1` (stereo not drawn) [Example 267, N-[[6-(1,8-naphthyridine-4-carbonyl)-6-azaspiro[2.5]octan-2-yl]methyl]furo[2,3-c]pyridine-2-carboxamide], the IC50 was determined as 0.321 µM.
For `O=C(NCC1CC12CCN(C(=O)c1cnc3ccccc3n1)CC2)c1cc2ccncc2o1` (stereo not drawn) [Example 269], half-maximal inhibition (IC50) was put at 0.0277 µM.
To `O=C(NCC1CC12CCN(C(=O)c1ccc3cccnc3n1)CC2)c1cc2ccncc2o1` (stereo not drawn) [Example 271, N-[[6-(1,8-naphthyridine-2-carbonyl)-6-azaspiro[2.5]octan-2-yl]methyl]furo[2,3-c]pyridine-2-carboxamide] belongs 0.0964 µM.
To `O=C(NCC1CC12CCN(C(=O)c1ccno1)CC2)c1cc2ccncc2o1` (stereo not drawn) [Example 272, N-[[6-(isoxazole-5-carbonyl)-6-azaspiro[2.5]octan-2-yl]methyl]furo[2,3-c]pyridine-2-carboxamide] belongs 0.335 µM; to `CC(C)CC(=O)N1CCC2(CC1)CC2CNC(=O)c1cc2ccncc2o1` (stereo not drawn) [Example 273, N-[[6-(3-methylbutanoyl)-6-azaspiro[2.5]octan-2-yl]methyl]furo[2,3-c]pyridine-2-carboxamide], 0.0178 µM; to `CC(C)(C)OC(=O)N1CCC2(CC1)CC2CNC(=O)N1Cc2cn[nH]c2C1` (stereo not drawn) [Example 274, tert-Butyl 2-[(4,6-dihydro-1H-pyrrolo[3,4-c]pyrazole-5-carbonylamino)methyl]-6-azaspiro[2.5]octane-6-carboxylate], 0.384 µM.
The figure for `CN1CCC(C)(CC(=O)N2CCC3(CC2)CC3CNC(=O)c2cc3ccncc3o2)CC1` (stereo not drawn) [Example 275, N-([6-[2-(1,4-dimethylpiperidin-4-yl)acetyl]-6-azaspiro[2.5]octan-1-yl]methyl)furo[2,3-c]pyridine-2-carboxamide] is 0.121 µM; for `O=C(NCC1CC12CCN(C(=O)Cc1cccnc1)CC2)c1cc2cnccc2[nH]1` (stereo not drawn) [Example 277, N-[[6-[2-(3-pyridyl)acctyl]-6-azaspiro[2.5]octan-2-yl]methyl]-1H-pyrrolo[3,2-c]pyridine-2-carboxamide] it is 0.445 µM; for `O=C(NCC1CC12CCN(C(=O)Cc1ccncc1)CC2)c1cc2cnccc2[nH]1` (stereo not drawn) [Example 278, N-[[6-[2-(4-pyridyl)acetyl]-6-azaspiro[2.5]octan-2-yl]methyl]-1H-pyrrolo[3,2-c]pyridine-2-carboxamide] it is 0.479 µM.
With `Cc1cc(C)c(C(=O)N2CCC3(CC2)CC3CNC(=O)c2cc3ccncc3o2)cn1` (stereo not drawn) [Example 281, N-[[6-(4,6-dimethylpyridine-3-carbonyl)-6-azaspiro[2.5]octan-2-yl)methyl]furo[2,3-c]pyridine-2-carboxamide], the IC50 came out at 0.056 µM.
To `Cc1ccncc1C(=O)N1CCC2(CC1)CC2CNC(=O)c1cc2cnccc2[nH]1` (stereo not drawn) [Example 291, N-[[6-(4-methylpyridine-3-carbonyl)-6-azaspiro[2.5]octan-2-yl]methyl]-1H-pyrrolo[3,2-c]pyridine-2-carboxamide] belongs 0.722 µM; to `Cn1nc(C(C)(C)C)cc1C(=O)N1CCC2(CC1)CC2CNC(=O)c1cc2ccncc2o1` (stereo not drawn) [Example 296, N-[[6-(5-tert-butyl-2-methyl-pyrazole-3-carbonyl)-6-azaspiro[2.5]octan-2-yl]methyl]furo[2,3-c]pyridine-2-carboxamide], 0.0871 µM; to `CCn1nccc1C(=O)N1CCC2(CC1)CC2CNC(=O)c1cc2ccncc2o1` (stereo not drawn) [Example 297, N-[[6-(2-ethylpyrazole-3-carbonyl)-6-azaspiro[2.5]octan-2-yl]methyl]furo[2,3-c]pyridine-2-carboxamide], 0.0925 µM.
The figure for `Cc1cnn(C(C)(C)C)c1C(=O)N1CCC2(CC1)CC2CNC(=O)c1cc2ccncc2o1` (stereo not drawn) [Example 298, N-[[6-(2-tert-butyl-4-methyl-pyrazole-3-carbonyl)-6-azaspiro[2.5]octan-2-yl]methyl]furo[2,3-c]pyridine-2-carboxamide] is 0.213 µM; for `Cc1cnn(C)c1C(=O)N1CCC2(CC1)CC2CNC(=O)c1cc2ccncc2o1` (stereo not drawn) [Example 299, N-[[6-(2,4-dimethylpyrazole-3-carbonyl)-6-azaspiro[2.5]octan-2-yl]methyl]furo[2,3-c]pyridine-2-carboxamide] it is 0.165 µM.
For the compound `O=C(NCC1CC12CCN(C(=O)c1n[nH]c3ccccc13)CC2)c1cc2ccncc2o1` (stereo not drawn) [Example 302, N-[[6-(1H-indazole-3-carbonyl)-6-azaspiro[2.5]octan-2-yl]methyl]furo(2,3-c]pyridine-2-carboxamide], the IC50 amounted to 0.0648 µM.
The figure for `CC(C)N1CCC(n2cc(C(=O)N3CCC4(CC3)CC4CNC(=O)c3cc4ccncc4o3)cn2)C1` (stereo not drawn) [Example 303, N-[[6-(1-(1-isopropylpyrrolidin-3-yl)pyrazole-4-carbonyl]-6-azaspiro[2.5]octan-2-yl]methyl]furo[2,3-c]pyridine-2-carboxamide] is 0.478 µM; for `Cc1nn(C)cc1-c1cc(C(=O)N2CCC3(CC2)CC3CNC(=O)c2cc3ccncc3o2)no1` (stereo not drawn) [Example 305, N-[[6-[5-(1,3-dimethylpyrazol-4-yl)isoxazole-3-carbonyl]-6-azaspiro[2.5]octan-2-yl]methyl]furo[2,3-c]pyridine-2-carboxamide] it is 0.0979 µM.
To `CC(C)(C)OC(=O)N1Cc2[nH]nc(C(=O)N3CCC4(CC3)CC4CNC(=O)c3cc4ccncc4o3)c2C1` (stereo not drawn) [Example 306, tert-butyl 3-[2-[(furo[2,3-c]pyridine-2-carbonylamino)methyl]-6-azaspiro[2.5]octane-6-carbonyl]-4,6-dihydro-1H-pyrrolo[3,4-c]pyrazole-5-carboxylate] belongs 0.0678 µM.
With `CN1CCC(n2cc(C(=O)N3CCC4(CC3)CC4CNC(=O)c3cc4ccncc4o3)cn2)C1` (stereo not drawn) [Example 307, N-[[6-[1-(1-methylpyrrolidin-3-yl)pyrazole-4-carbonyl]-6-azaspiro[2.5]octan-2-yl]methyl]furo[2,3-c]pyridine-2-carboxamide], the IC50 came out at 0.0858 µM.
To `Cc1cc(C(=O)N2CCC3(CC2)CC3CNC(=O)c2cc3ccncc3o2)n(C(C)(C)C)n1` (stereo not drawn) [Example 308, N-[[6-(2-tert-butyl-5-methyl-pyrazole-3-carbonyl)-6-azaspiro[2.5]octan-2-yl]methyl]furo[2,3-c]pyridine-2-carboxamide] belongs 0.116 µM.
For the compound `Cc1nc2ccccn2c1C(=O)N1CCC2(CC1)CC2CNC(=O)c1cc2ccncc2o1` (stereo not drawn) [Example 309, N-[[6-(2-methylimidazo[1,2-a]pyridine-3-carbonyl)-6-azaspiro[2.5]octan-2-yl]methyl]furo[2,3-c]pyridine-2-carboxamide], the IC50 came out at 0.0822 µM.
Consider `Cc1ccc2nc(C(=O)N3CCC4(CC3)CC4CNC(=O)c3cc4ccncc4o3)[nH]c2c1` (stereo not drawn) [Example 310, N-[[6-(6-methyl-1H-benzimidazole-2-carbonyl)-6-azaspiro[2.5]octan-2-yl]methyl]furo[2,3-c]pyridine-2-carboxamide], for which the midpoint of inhibition, the IC50, lay at 0.119 µM.
Consider `Cc1cccc2nc(C(=O)N3CCC4(CC3)CC4CNC(=O)c3cc4ccncc4o3)cn12` (stereo not drawn) [Example 311, N-[[6-(5-methylimidazo[1,2-a]pyridine-2-carbonyl)-6-azaspiro[2.5]octan-2-yl]methyl]furo[2,3-c]pyridine-2-carboxamide], for which it took 0.0158 µM to reach half-maximal inhibition (IC50).
Take `O=C(NCC1CC12CCN(C(=O)c1cc3ncccn3n1)CC2)c1cc2ccncc2o1` (stereo not drawn) [Example 313, N-[[6-(pyrazolo[1,5-a]pyrimidine-2-carbonyl)-6-azaspiro[2.5]octan-2-yl]methyl]furo[2,3-c]pyridine-2-carboxamide]: it took 0.0363 µM to reach half-maximal inhibition (IC50).
Regarding `CCn1nc(C)c(C(=O)N2CCC3(CC2)CC3CNC(=O)c2cc3ccncc3o2)c1C` (stereo not drawn) [Example 314, N-[[6-(1-ethyl-3,5-dimethyl-pyrazole-4-carbonyl)-6-azaspiro[2.5]octan-2-yl]methyl]furo[2,3-c]pyridine-2-carboxamide], the IC50 stood at 0.0459 µM.
To `Cc1ccc2nc(C(=O)N3CCC4(CC3)CC4CNC(=O)c3cc4ccncc4o3)cn2c1` (stereo not drawn) [Example 315, N-[[6-(6-methylimidazo[1,2-a]pyridine-2-carbonyl)-6-azaspiro[2.5]octan-2-yl]methyl]furo[2,3-c]pyridine-2-carboxamide] belongs 0.0572 µM.
For `O=C(NCC1CC12CCN(C(=O)c1cnn3ccccc13)CC2)c1cc2ccncc2o1` (stereo not drawn) [Example 316, N-[[6-(pyrazolo[1,5-a]pyridine-3-carbonyl)-6-azaspiro[2.5]octan-2-yl]methyl]furo[2,3-c]pyridine-2-carboxamide], the midpoint of inhibition, the IC50, lay at 0.744 µM. Compared with the last compound, the IC50 is about 13-fold higher.
In turn, `O=C(NCC1CC12CCN(C(=O)c1cn3ccccc3n1)CC2)c1cc2ccncc2o1` (stereo not drawn) [Example 317, N-[[6-(imidazo[1,2-a]pyridine-2-carbonyl)-6-azaspiro[2.5]octan-2-yl]methyl]furo[2,3-c]pyridine-2-carboxamide] registered an IC50 of 0.0443 µM.
With `CC(C)c1oncc1C(=O)N1CCC2(CC1)CC2CNC(=O)c1cc2ccncc2o1` (stereo not drawn) [Example 318, N-[[6-(5-isopropylisoxazole-4-carbonyl)-6-azaspiro[2.5]octan-2-yl]methyl]furo[2,3-c]pyridine-2-carboxamide], the IC50 was 0.436 µM.
The figure for `CC(C)Cc1cc(C(=O)N2CCC3(CC2)CC3CNC(=O)c2cc3ccncc3o2)[nH]n1` (stereo not drawn) [Example 319, N-[[6-(3-isobutyl-1H-pyrazole-5-carbonyl)-6-azaspiro[2.5]octan-2-yl]methyl]furo[2,3-c]pyridine-2-carboxamide] is 0.0776 µM; for `O=C(NCC1CC12CCN(C(=O)c1cn3cccnc3n1)CC2)c1cc2ccncc2o1` (stereo not drawn) [Example 320, N-[[6-(imidazo[1,2-a]pyrimidine-2-carbonyl)-6-azaspiro[2.5]octan-2-yl]methyl]furo[2,3-c]pyridine-2-carboxamide] it is 0.13 µM.
With `O=C(NCC1CC12CCN(C(=O)c1cnn3cccnc13)CC2)c1cc2ccncc2o1` (stereo not drawn) [Example 321, N-[[6-(pyrazolo[1,5-a]pyrimidine-3-carbonyl)-6-azaspiro[2.5]oclan-2-yl]methyl]furo[2,3-c]pyridine-2-carboxamide], the midpoint of inhibition, the IC50, lay at 0.523 µM.
